{
  "sequences": {"note": "Protein sequences, listed by entry. Tags and fused reporters are not part of them. Lines headed by an entry give the natural chain unless they say otherwise; changes in a name come on top.", "UniProt P22303": "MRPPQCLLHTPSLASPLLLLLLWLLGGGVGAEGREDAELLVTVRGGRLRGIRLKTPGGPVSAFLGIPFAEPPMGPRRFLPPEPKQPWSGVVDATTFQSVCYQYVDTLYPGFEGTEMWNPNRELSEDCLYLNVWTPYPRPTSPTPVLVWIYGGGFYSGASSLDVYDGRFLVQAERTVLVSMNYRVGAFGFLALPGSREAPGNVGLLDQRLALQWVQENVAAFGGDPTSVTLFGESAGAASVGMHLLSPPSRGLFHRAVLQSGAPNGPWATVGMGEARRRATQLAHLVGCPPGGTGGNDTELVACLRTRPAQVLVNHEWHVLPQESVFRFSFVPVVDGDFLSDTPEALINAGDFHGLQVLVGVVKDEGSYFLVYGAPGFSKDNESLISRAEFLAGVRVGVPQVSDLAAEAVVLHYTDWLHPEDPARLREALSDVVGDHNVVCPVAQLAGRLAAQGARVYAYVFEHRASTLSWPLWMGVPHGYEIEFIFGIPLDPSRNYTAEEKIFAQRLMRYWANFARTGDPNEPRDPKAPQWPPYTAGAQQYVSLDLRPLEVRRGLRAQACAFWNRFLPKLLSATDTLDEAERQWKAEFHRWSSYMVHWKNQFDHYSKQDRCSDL"},
  "source": "ChEMBL document CHEMBL4330159",
  "about": "“Isoquinoline Alkaloids from Berberis vulgaris as Potential Lead Compounds for the Treatment of Alzheimer's Disease” (J Nat Prod, 2019)",
  "target": "Acetylcholinesterase (Homo sapiens, UniProt P22303)",
  "data": [
    {"smiles": "COc1ccc2cc3[n+](cc2c1OC)CCc1cc2c(cc1-3)OCO2", "note": "[BERBERINE]", "values": [
      {"measurement": "IC50", "result": 0.7, "unit": "µM"}
    ]}
  ]
}
